# A selection: hits, their analogues and other compounds. The true share with any hit is near 0.46%.
# GIV-Gai inh – inhibitors of GIV GBA-motif binding to rat Galpha-i3. 210,000 tested, 0.42% active. percent of control (FP), % (concentration not given with the values). AID 1224905. Galpha-i3/FITC-GIV peptide fluorescence polarization, 90 min; active compounds read low; scaled: aluminum fluoride 0%, vehicle 100%;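 active = replicate mean at 85% of control or lower, very high polarization wells dropped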;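 note: wells of about 15 µL received 100 nL stock; the first replicate is given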
# HCMV NEC inh – inhibitors of HCMV UL50-UL53 interaction, biochemical, HTRF; HCMV UL50-UL53 nuclear egress complex (human cytomegalovirus); normalized percent inhibition; inhibition, % (concentration not given with the values); hit rate 0.15% among 190,000; AID 1918969, 2023; in the data active = inhibition above about 27%, passing the limit was not always enough
# GIV Gai FP conf – inhibitors of GIV peptide binding to Galpha-i3, confirmation, biochemical, fluorescence polarization, FITC-GIV peptide, rat Galphai3 | AID 1259350, 2017 | shares compounds with GIV-Gai inh | active compounds read low | hit rate 38% among 580 | fluorescence polarization, mP at 100 µM;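 active = inhibition score of 15 or more, meaning 100 minus mean polarization as percent of control over three replicates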;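 also: lower mP means peptide displaced from Galphai3 so more inhibition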
# GIV Gai AS conf – inhibitors of GIV binding to Galpha-i3, confirmation, orthogonal assay for GIV-Galpha-i inhibitor project, biochemical, AlphaScreen, His-GIV, GST-Galphai3; purified proteins, 90 min; active compounds read low; AlphaScreen counts at 100 µM; shares compounds with GIV-Gai inh; AID 1259351, 2017; hit rate 39% among 580;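 active = inhibition score at or above a set limit, where the score is 100 minus the three-replicate mean percent of control signal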
# The depositor's hits bear a star; x = no result given.
SMILES,GIV-Gai inh,HCMV NEC inh,others
Cc1[nH]c2ccccc2c1/C=C/c1nc2ccccc2c(=O)n1-c1ccccc1,-70*,7,
Cc1ccccc1-n1c(/C=C/c2c(C)[nH]c3ccccc23)nc2ccccc2c1=O,113,-12,
O=C1NC(=O)C(=Cc2cccc(OCCOc3ccc([N+](=O)[O-])cc3)c2)C(=O)N1,112,37*,
O=C1NC(=O)C(=Cc2ccc(OCCOc3ccc([N+](=O)[O-])cc3)cc2)C(=O)N1,101,-31,
O=C1NC(=O)C(C2CCS(=O)(=O)C2)C(=O)N1 (centres undefined),x,-18,
CCC(=O)N1CCC2(C1)C(=O)Nc1ccc(OC)cc12 (centres undefined),104,x,
CC1(C)CC(=O)C(C2(O)C(=O)NC(=O)NC2=O)=C(O)C1,99,63*,
CN1/C(=C\C=C2C(=O)NC(=O)NC2=O)C(C)(C)c2ccccc21,29*,-78,
COc1cccc(C=C2C(=O)NC(=O)NC2=O)c1,x,14,
Cc1[nH]c2ccccc2c1CCNCc1ccco1,x,8,
CCCCc1ncc(CNCCc2c(C)[nH]c3ccc(OC)cc23)[nH]1,21*,-13,
CC12CC[C@H]3[C@@H](CCC4(O)C[C@H](O)CCC34/C=N/NC(=O)c3ccncc3)C1(O)CCC2C1=CC(=O)OC1 (some centres undefined),110,x,
Cc1ccc(N2C(=O)NC(=O)/C(=C\c3cc(C)n(-c4cc(C(=O)O)cc(C(=O)O)c4)c3C)C2=O)cc1,106,32*,
Cc1cc(/C=C2\C(=O)NC(=O)N(c3ccc(F)cc3)C2=O)c(C)n1-c1ccc(C(=O)O)cc1,102,-18,
COc1cc(C=C2C(=O)NC(=O)NC2=O)ccc1OCc1ccc(C(=O)O)cc1,111,20,
O=C1NC(=O)C(=Cc2ccc(OCc3ccc(C(=O)O)cc3)c(Br)c2)C(=O)N1,101,63*,
O=C(CN1CCN(C(=O)COc2ccc(F)cc2)CC1)Nc1nnc(-c2ccccc2)s1,101,x,
CN1C(=O)C(=Cc2coc3ccccc3c2=O)C(=O)N(C)C1=O,103,39*,
CC(c1ccccc1)N1C(=O)NC(=O)/C(=C/c2coc3ccccc3c2=O)C1=O (centres undefined),105,x,
Cc1cc(C)n(C(=O)CN2C(=O)CN=C(c3ccccc3)c3cc(Br)ccc32)n1,106,2,
NNc1ccc2nnnn2n1,104,x,
O=C1NC(=S)NC(=O)C1=C/C=C/c1ccco1,110,78*,
CN1C(=O)NC(=O)/C(=C\C=C\c2ccco2)C1=O,95,x,
CCOC(=O)c1c(C)n(Cc2ccccc2)c2ccc(OCC(O)CN3CCOCC3)cc12 (centres undefined),108,-1,
CC(Cc1ccccc1)NCCC(c1ccccc1)c1ccccc1 (centres undefined) (tested in a mixture with another compound),x,16,
CN1CCCCC1c1cccnc1N (centres undefined),104,-14,
COc1ccc(CN2C(=O)NC(=O)/C(=C\c3cccc(OC)c3OC)C2=O)cc1,98,78*,
COc1ccc(-n2c(C)cc(/C=C3/C(=O)NC(=O)N(Cc4ccco4)C3=O)c2C)cc1,94,1,
CN1CCN(c2ccccc2NC(=O)C2CCC2)CC1,x,7,
COc1ccc2c(c1)C1(CCN(S(=O)(=O)c3ccc4c(c3)OCCO4)C1)C(=O)N2C (centres undefined),104,x,
Cc1c(C#N)c2nc3ccccc3n2c(=O)/c1=C\Nc1ccc(N2CCOCC2)c(Cl)c1,57*,x,
Cc1cc(Nc2ccc(N3CCCC3)cc2)n2c(nc3ccccc32)c1C#N,101,-41,
CCCN1CCC2(CC1)NCCc1[nH]cnc12,98,-20,
Cc1cc(C)c2oc(-c3ccc(N/C=c4\c(C)c(C#N)c5nc6ccccc6n5c4=O)cc3)nc2c1,73*,3,GIV Gai FP conf=80;GIV Gai AS conf=44971
COc1c(Cl)cc(Cl)cc1-c1c(C#N)c(N)n2c(nc3ccccc32)c1C#N,102,x,
CCOC(=O)c1c(C)n(Cc2ccccc2)c2ccc(OCC(O)CN3CCCCC3)cc12 (centres undefined),101,-8,

# Pulled by structure from the entries so far:
SMILES,GIV-Gai inh,HCMV NEC inh,others
Cc1cc(Nc2ccc(N3CCCC3)cc2)n2c(nc3ccccc32)c1C#N,101,-41,
CC(Cc1ccccc1)NCCC(c1ccccc1)c1ccccc1 (centres undefined) (tested in a mixture with another compound),x,16,
CCOC(=O)c1c(C)n(Cc2ccccc2)c2ccc(OCC(O)CN3CCCCC3)cc12 (centres undefined),101,-8,
Cc1c(C#N)c2nc3ccccc3n2c(=O)/c1=C\Nc1ccc(N2CCOCC2)c(Cl)c1,57*,x,
CN1CCN(c2ccccc2NC(=O)C2CCC2)CC1,x,7,
